Assay [1] addresses T1, nociceptin receptor ORL1 (Homo sapiens, UniProt P41146). The experiment in a line: Nociceptin-elicited G protein activation (GTPγ[35S] binding, CHO/ORL1 membranes). The note with it: read-out: EC50 of G protein activation (GTPγ[35S] binding); CHO/ORL1 membrane, 25° C., 150 minutes; compared with the increase caused by 1 μM nociceptin. (GTPγS resists hydrolysis and so accumulates on activated G proteins.)

Assay [2] concerns the target T1, nociceptin receptor ORL1. Description: Nociceptin receptor binding assay ([125I]Tyr14-Nociceptin, CHO/ORL1 membranes, SPA). The note with it: read-out: IC50 of [125I]Tyr14-Nociceptin binding to the nociceptin receptor; CHO/ORL1 membrane, 50 pM [125I]Tyr14-Nociceptin, 37° C., 60 minutes.

EC50 and IC50 data for four molecules are collected here from patent publication US7557117B2, “4-oxoimidazolidine-2-spiropiperidine derivatives” (dated 2009).

Broadly, the EC50 is the concentration needed to bring the measured effect to its halfway point. Broadly, the IC50 is the point on the concentration scale where inhibition reaches its midpoint.

For `CCCCC(CC)N1CCC2(CC1)NC(=O)CN2c1ccccc1` (centres unmarked), the EC50 on nociceptin receptor ORL1 [1] turned out to be 89 nM. Also, at nociceptin receptor ORL1 [2], the IC50 is 2.2 nM.
In the case of `O=C1CN(c2ccccc2)C2(CCN(C3CCC4CCCCC4C3)CC2)N1` (centres unmarked), the EC50 on nociceptin receptor ORL1 [1] was determined as 3.8 nM. On nociceptin receptor ORL1 [2], the IC50 worked out at 0.35 nM.
On the same counts, the results for `CC(C)(C)CC(C)(C)N1CCC2(CC1)NC(=O)CN2c1cccc(F)c1` are 1.2 nM and 0.2 nM.
In the same order, the values of `CC(C)(C)CC(C)(C)N1CCC2(CC1)NC(=O)CN2c1ccccc1` are 3.5 nM and 0.27 nM.
